{"sequences": {"note": "Chains of the proteins cited; added tags and fusions are not shown. Lines headed by an entry give the natural chain unless they say otherwise; changes in a name come on top.", "UniProt O00329": "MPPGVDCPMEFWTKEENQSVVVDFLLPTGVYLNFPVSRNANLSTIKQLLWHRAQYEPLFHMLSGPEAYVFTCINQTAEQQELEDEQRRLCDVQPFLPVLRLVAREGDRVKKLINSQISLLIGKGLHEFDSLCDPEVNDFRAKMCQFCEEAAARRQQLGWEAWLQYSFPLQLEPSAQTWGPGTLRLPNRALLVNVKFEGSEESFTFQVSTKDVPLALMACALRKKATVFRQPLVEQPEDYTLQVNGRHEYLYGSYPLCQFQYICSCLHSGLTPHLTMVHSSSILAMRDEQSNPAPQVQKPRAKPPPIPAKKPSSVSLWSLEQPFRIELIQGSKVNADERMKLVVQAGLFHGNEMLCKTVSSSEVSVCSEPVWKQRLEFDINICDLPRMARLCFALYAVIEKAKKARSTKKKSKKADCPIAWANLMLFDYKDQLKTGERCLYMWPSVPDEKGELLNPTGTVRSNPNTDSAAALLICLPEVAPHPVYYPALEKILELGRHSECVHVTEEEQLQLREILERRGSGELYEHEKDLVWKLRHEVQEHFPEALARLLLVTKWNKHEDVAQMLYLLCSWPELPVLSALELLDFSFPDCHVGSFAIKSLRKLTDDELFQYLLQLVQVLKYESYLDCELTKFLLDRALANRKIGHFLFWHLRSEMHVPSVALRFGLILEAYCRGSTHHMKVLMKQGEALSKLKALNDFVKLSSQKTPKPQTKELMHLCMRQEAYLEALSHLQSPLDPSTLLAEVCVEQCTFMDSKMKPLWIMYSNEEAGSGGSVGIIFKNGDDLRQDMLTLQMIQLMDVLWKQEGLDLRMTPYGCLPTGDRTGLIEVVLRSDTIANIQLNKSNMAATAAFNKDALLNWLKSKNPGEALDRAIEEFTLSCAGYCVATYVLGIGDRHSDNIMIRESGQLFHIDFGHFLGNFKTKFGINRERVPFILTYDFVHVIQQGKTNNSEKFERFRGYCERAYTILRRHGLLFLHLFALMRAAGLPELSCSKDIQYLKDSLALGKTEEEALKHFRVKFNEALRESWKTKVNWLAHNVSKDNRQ"}, "source": "patent US20130116267A1", "about": "(priority 2010, published 2013)", "origin": "cited, not measured here", "target": "PI3K p110 delta (Homo sapiens, UniProt O00329)", "details": "cited from earlier work", "note": "pIC50: −log10 of the molar value.", "data": [{"smiles": "Cn1c(=O)c2[nH]cnc2n(C)c1=O", "note": "[Theophylline, theophylline]", "values": [{"measurement": "pIC50", "result": 4.12}]}]}
